In patent publication US20260053861A1, “CELL COMPOSITIONS AND METHODS OF USING THE SAME” (THE REGENTS OF THE UNIVERSITY OF CALIFORNIA, priority 2022, published 2026):
Where two headings read alike, the source gives them in different places.

System: hPSC-SCs
[1] = HTS viability of hPSC-SCs in the presence of 30 mM glucose, Prestwick library, Table S4

Row | Compound | z.score.t [1] | z.score.t
1 | Thiethylperazine malate | −1.464 | 
2 | CC(=O)O[C@]1(C(C)=O)CC[C@H]2[C@@H]3C=C(C)C4=CC(=O)CC[C@]4(C)[C@H]3CC[C@@]21C [Megestrol acetate] | −1.465 | 
3 | CCCCc1oc2ccccc2c1C(=O)c1cc(Br)c(O)c(Br)c1 [Benzdromarone] |  | −1.459
4 | Pirlindole mesylate | −0.3313 | 
5 | CC1CCc2cc(F)cc3c(=O)c(C(=O)O)cn1c23 (centres unmarked) [Flumequine] | −1.461 | 
